Reference: patent US11324804B2, “Combined CD6 and imipenem therapy for treatment of infectious diseases and related inflammatory processes” (Sepsia Therapeutics, S.L., priority 2016, dated 2022)

B1: rshCD6: recombinantly obtained soluble human CD6 ectodomain (SEQ ID NO: 1) (protein, listed as Homo sapiens)
chain: DQLNTSSAESELWEPGERLPVRLTNGSSSCSGTVEVRLEASWEPACGALWDSRAAEAVCRALGCGGAEAASQLAPPTPELPPPPAAGNTSVAANATLAGAPALLCSGAEWRLCEVVEHACRSDGRRARVTCAENRALRLVDGGGACAGRVEMLEHGEWGSVCDDTWDLEDAHVVCRQLGCGWAVQALPGLHFTPGRGPIHRDQVNCSGAEAYLWDCPGLPGQHYCGHKEDAGVVCSEHQSWRLTGGADRCEGQVEVHFRGVWNTVCDSEWYPSEAKVLCQSLGCGTAVERPKGLPHSLSGRMYYSCNGEELTLSNCSWRFNNSNLCSQSLAARVLCSASRSLHNLSTPEVPASVQTVTIESSVTVKIENKESR

Test system: CLP-induced polymicrobial septic shock
Test: Mouse survival after cecal ligation and puncture (CLP)-induced septic shock
[1] = i.p. at +0 h post-CLP, rshCD6 1.25 mg/kg, Erythromycin 2.75 μg/kg/8 h, FIG. 5A
[2] = i.p. at +1 h post-CLP, rshCD6 1.25 mg/kg, Erythromycin 2.75 μg/kg/8 h, FIG. 5B
[3] = +1 h post-CLP, rshCD6 1.25 mg/kg i.v., Meropenem 17 mg/kg/8 h i.p., FIG. 6B
[4] = i.p. at +0 h post-CLP, rshCD6 1.25 mg/kg, Meropenem 17 mg/kg/8 h, FIG. 6A

Row | Molecule | survival [1] [%] | survival [2] [%] | survival [3] [%] | survival [4] [%]
1 | CC[C@H]1OC(=O)[C@H](C)[C@@H](O[C@H]2C[C@@](C)(OC)[C@@H](O)[C@H](C)O2)[C@H](C)[C@@H](O[C@@H]2O[C@H](C)C[C@H](N(C)C)[C@H]2O)[C@](C)(O)C[C@@H](C)C(=O)[C@H](C)[C@@H](O)[C@]1(C)O [Erythromycin, (3R,4S,5S,6R,7R,9R,11R,12R,13S,14R)-6-{[(2S,3R,4S,6R)-4-(dimethylamino)-3-hydroxy-6-methyloxan-2-yl]oxy}-14-ethyl-7,12,13-trihydroxy-4-{[(2R,4R,5S,6S)-5-hydroxy-4-methoxy-4,6-dimethyloxan-2-yl]oxy}-3,5,7,9,11,13-hexamethyl-1-oxacyclotetradecane-2,10-dione, reference compound] | 16.6 | 13.3 | – | –
2 | C[C@@H](O)[C@H]1C(=O)N2C(C(=O)O)=C(S[C@@H]3CN[C@H](C(=O)N(C)C)C3)[C@H](C)[C@H]12 [Meropenem, (4R,5S,6S)-3-(((3S,5S)-5-(Dimethylcarbamoyl)pyrrolidin-3-yl)thio)-6-((R)-1-hydroxyethyl)-4-methyl-7-oxo-1-azabicyclo[3.2.0]hept-2-ene-2-carboxylic acid, reference compound] | – | – | 14.28 | 15
3 | B1 | 22.2 | 20 | 26.7 | 37.5
